Protein sequences, listed by entry. Tags and fused reporters are not part of them. Residues count along the entry.
UniProt P20393, 284-614 limits assumed: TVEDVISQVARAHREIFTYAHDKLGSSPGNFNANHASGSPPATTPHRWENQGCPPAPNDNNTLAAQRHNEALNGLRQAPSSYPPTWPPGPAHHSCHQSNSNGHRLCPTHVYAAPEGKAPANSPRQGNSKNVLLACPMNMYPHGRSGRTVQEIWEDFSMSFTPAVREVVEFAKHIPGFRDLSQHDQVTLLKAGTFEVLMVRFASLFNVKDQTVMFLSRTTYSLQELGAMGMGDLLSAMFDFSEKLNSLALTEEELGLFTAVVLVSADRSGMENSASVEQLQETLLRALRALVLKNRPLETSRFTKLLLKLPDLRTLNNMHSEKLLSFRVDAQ

According to PMC9681850, “Structural basis of synthetic agonist activation of the nuclear receptor REV-ERB” (Nature Communications, 2022):

Target: REV-ERBα LBD (Homo sapiens, UniProt P20393)
Test: scintillation proximity radioligand binding assay with 3H-STL1267
Conditions: read-out: Kd for 3H-STL1267 binding, tested as the radiolabelled form

## Clc1nnc2ccc(Oc3ccccc3-c3ccccc3)nn12 [STL1267]
  Kd: 448 nM
